US20250057925A1

Experiments:
[1] = biological target: cellular receptors of normal and Pompe fibroblast cell lines; assay: cell-based or functional assay
[2] = biological target: cation-independent mannose-6-phosphate receptor (CIMPR); assay: M6P receptor (CIMPR) plate binding assay
[3] = biological target: cation-independent mannose-6-phosphate receptor (CIMPR); assay: CIMPR affinity chromatography, different production batches (FIG. 5)
[4] = biological target: cation-independent mannose-6-phosphate receptor (CIMPR); assay: CIMPR affinity column, same condition as for Myozyme and Lumizyme (FIG. 5)
[5] = biological target: cation-independent mannose-6-phosphate receptor (CIMPR); assay: CIMPR affinity column, flow through against M6P-eluted fraction by GAA activity

Substance | concentration that saturates cellular receptors (fibroblast uptake) [1] | Kd [2] | percent of rhGAA bound to CIMPR [3] | percent of rhGAA bound to CIMPR [4] | uptake efficiency constant (Kuptake), internalised GAA activity in fibroblasts after 16 h [1] | percent of rhGAA bound to CIMPR (M6P-bearing fraction) [5] | percent of rhGAA not bound to CIMPR [5]
ATB200 recombinant human acid α-glucosidase (rhGAA) produced from CHO cell line GA-ATB200 (from UniProt P10253 57-952) (enzyme) | 20 nM | 2 to 4 nM | > 70% | > 70% |  |  | 
Lumizyme® (alglucosidase alfa), conventional rhGAA product (from UniProt P10253 57-952) (enzyme) | 250 nM |  |  |  | 56 nM | 22% | 78%
Myozyme® (alglucosidase alfa), conventional rhGAA product (from UniProt P10253 57-952) (enzyme) |  |  |  |  |  | 27% | 73%
